Key:
salivation = assay: Salivation-inhibiting effect on the rat (pilocarpine); type: in vivo, male THOM rats; conditions: i.v. ED50 values
[1] = target: T1, muscarinic receptors, heart (Rattus norvegicus, UniProt P10980); assay: Receptor bonding test in vitro, heart (displacement of 3H-N-methylscopolamine); type: binding, Sprague-Dawley rats
T1 construct: After removal of the heart and submandibular gland; from tissue; host or cells: whole heart of male Sprague-Dawley rats, homogenate

Chains of the proteins cited; added tags and fusions are not shown.
UniProt P10980, whole entry: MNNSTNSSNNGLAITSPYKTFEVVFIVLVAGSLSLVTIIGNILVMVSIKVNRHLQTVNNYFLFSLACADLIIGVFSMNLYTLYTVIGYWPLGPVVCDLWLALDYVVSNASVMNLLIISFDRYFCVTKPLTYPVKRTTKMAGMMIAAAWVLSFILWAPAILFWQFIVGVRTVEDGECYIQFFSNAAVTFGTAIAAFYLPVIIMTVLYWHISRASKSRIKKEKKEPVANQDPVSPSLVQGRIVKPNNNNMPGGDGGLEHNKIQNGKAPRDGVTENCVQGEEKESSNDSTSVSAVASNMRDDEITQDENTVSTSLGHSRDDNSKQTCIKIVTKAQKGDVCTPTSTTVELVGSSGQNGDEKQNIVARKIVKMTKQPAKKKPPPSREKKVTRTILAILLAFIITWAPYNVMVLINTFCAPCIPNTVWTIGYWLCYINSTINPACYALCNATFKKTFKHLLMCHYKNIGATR
UniProt P08483, whole entry: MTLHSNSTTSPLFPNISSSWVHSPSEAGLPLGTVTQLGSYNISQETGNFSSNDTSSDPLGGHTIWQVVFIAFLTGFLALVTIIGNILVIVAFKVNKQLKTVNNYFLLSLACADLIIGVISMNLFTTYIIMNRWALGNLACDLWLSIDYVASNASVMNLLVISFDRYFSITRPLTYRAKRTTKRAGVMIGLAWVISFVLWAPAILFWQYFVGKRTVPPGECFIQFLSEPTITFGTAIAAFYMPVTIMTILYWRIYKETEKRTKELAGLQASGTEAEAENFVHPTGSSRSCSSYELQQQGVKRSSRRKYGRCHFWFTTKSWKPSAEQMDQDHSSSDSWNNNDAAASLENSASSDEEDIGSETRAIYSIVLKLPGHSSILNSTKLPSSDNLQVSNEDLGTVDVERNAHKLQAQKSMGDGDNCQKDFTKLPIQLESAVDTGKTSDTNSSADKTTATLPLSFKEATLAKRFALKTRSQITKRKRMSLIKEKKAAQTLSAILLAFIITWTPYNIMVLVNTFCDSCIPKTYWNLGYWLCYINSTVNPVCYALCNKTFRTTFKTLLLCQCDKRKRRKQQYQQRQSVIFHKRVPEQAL

[2] = target: muscarinic receptors, heart atrium (Rattus norvegicus, UniProt P10980); assay: Receptor bonding test in vivo, heart atrium (3H-NMS); conditions: in vivo binding, 30 min
[3] = target: muscarinic receptors, lachrymal glands (Rattus norvegicus, UniProt P08483); assay: Receptor bonding test in vivo, lachrymal glands (3H-NMS); conditions: iv, 0.5 h, read-out: ID50 Lachrymal glands

For `CCN(CC)CC1CCCCN1CCNC(=O)N1c2cc(Cl)ccc2C(=O)Nc2cccnc21` (stereo not shown) [Substance C, 9-chloro-11-[[[2-[2-[(diethylamino)methyl]-piperidin-1-yl]ethyl]amino]carbonyl]-5,11-dihydro-6H-pyrido[2,3-b][1,4]benzodiazepin-6-one], the “Ratio of salivation inhibition to M2 activity” value (salivation) was 24.12, the “Selectivity factor: Ratio IC50 submandibular gland to IC50 heart” value [1] was 5 and the “Ratio of ID50 lachrymal gland to ID50 atrium” value [2] was 50. For the same molecule, the ED50 [3] was 10 mg/kg.
